Publication PMC4042160 (2014)

Sequences of proteins named here, by UniProt entry; tags and fusion partners are left off. Residues count along the entry.
UniProt Q5S007, 970-2527: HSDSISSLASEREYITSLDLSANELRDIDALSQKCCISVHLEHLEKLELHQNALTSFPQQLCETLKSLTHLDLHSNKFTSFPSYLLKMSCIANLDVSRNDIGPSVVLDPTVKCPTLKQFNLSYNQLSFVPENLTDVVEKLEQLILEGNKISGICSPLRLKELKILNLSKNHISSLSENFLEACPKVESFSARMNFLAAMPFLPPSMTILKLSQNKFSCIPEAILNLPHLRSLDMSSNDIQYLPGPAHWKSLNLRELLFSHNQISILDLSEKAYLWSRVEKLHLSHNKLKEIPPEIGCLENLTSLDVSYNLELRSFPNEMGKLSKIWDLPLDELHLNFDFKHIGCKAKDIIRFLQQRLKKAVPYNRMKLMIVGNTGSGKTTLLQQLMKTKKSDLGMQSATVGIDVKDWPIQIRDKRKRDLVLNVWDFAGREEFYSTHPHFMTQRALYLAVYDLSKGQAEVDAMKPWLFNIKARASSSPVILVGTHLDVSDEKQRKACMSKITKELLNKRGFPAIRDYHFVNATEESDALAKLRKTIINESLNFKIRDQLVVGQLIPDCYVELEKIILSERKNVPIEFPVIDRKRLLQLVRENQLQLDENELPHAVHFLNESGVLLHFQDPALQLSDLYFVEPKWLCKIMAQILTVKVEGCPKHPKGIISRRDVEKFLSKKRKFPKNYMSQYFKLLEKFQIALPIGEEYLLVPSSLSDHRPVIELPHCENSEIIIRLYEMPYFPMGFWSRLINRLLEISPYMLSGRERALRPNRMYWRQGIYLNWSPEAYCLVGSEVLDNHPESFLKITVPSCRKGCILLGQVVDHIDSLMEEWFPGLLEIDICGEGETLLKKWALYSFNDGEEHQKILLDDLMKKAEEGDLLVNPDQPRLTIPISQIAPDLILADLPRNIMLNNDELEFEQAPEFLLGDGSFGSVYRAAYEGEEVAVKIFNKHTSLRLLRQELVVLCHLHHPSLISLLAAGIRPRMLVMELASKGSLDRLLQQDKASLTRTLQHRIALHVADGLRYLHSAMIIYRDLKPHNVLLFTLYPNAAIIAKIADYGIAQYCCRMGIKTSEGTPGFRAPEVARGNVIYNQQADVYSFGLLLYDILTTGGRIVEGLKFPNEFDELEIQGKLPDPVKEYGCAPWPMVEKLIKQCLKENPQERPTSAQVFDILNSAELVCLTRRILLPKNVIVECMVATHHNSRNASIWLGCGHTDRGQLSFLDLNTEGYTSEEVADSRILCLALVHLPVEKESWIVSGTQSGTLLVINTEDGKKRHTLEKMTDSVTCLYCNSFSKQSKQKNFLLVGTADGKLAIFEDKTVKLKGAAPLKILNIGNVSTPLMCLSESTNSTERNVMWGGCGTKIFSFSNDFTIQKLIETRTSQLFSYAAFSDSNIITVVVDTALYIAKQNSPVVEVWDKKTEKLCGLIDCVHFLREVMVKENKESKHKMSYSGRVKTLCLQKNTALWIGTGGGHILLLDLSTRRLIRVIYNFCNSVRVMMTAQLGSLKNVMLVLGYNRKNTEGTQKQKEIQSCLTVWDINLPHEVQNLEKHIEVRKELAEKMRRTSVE

How the values were obtained:
[1] = biological target: GST-tagged truncated LRRK2 containing residues 970 to 2527 (Homo sapiens, UniProt Q5S007); experiment: In vitro LRRKtide peptide-substrate kinase assay, single dose testing (10 μM); type: biochemical; conditions: LRRKtide assay @ 10 μM inhibitor; GST-LRRK2 970-2527; 10 μM ATP; mean, N = 3; solvent control = 100%
LRRK2 phospho-Ser935 = LRRK2 phospho-Ser935 (Homo sapiens, UniProt Q5S007); experiment: Cellular LRRK2 phosphoserine 935 dephosphorylation spotblot assay in SH-SY5Y cells stably expressing 3xFlag-LRRK2; conditions: @ 5 μM for 2 h, pS935/total LRRK2

Substance: Staurosporine, N-benzoyl-
- % LRRKtide phosphorylation relative to solvent [1]: 2.31%
- Phosphorylation level relative to solvent (%) (cellular pS935 assay) (LRRK2 phospho-Ser935): 67.82%
